In experiment [1] the target is T1, h5-HT2A (Homo sapiens, UniProt P28223). Put plainly: β-arrestin 2 recruitment (NanoBiT), h5-HT2A. The format is cell-based. More on the design: expressed in transfected cells. On the procedure:
(§1) Activation of h5-HT2A, h5-HT2B, and h5-HT2C receptors was examined by measuring the accumulation of inositol monophosphate (IP1) as a marker for Gαq-mediated signaling. For h5-HT2A, additional assays measured β-arrestin 2 recruitment and arachidonic acid release, the latter serving as a marker of Gαi/o,12/13 activation. The methodology is described in detail in the Supplementary information.
(§2) The IC50 values from the radioligand binding assays were determined by nonlinear regression, using three independent concentration-response curves fitted to a one-site model. The Cheng-Prusoff equation was used to calculate Kᵢ values for the competing ligands. EC50 values were determined by applying nonlinear regression to concentration-response curves. Bias factors (β) were calculated based on the relative intrinsic activity approach. […]
(§3) agonist solutions was added, and the signal was monitored for 2 h. […]
(§4) Arachidonic acid release was assessed as a marker for Gαi/o,12/13 mediated signaling. […]
(§5) Thereafter, the plate was put on ice, and 400 μL incubation supernatant per well was transferred int o scintillation vials containing scintillation fluid (Ultimagold, Perkin Elmer, Schwerzenbach, Switzerland). […] Radioactivity was measured on a liquid scintillation counter (Packard 1900 TR Tri-Carb Liquid Scintillation Counter; Packard Instrument Company). […]

Amino acid sequences for entries named in this document (tags omitted).
UniProt P28223, whole entry, looked up: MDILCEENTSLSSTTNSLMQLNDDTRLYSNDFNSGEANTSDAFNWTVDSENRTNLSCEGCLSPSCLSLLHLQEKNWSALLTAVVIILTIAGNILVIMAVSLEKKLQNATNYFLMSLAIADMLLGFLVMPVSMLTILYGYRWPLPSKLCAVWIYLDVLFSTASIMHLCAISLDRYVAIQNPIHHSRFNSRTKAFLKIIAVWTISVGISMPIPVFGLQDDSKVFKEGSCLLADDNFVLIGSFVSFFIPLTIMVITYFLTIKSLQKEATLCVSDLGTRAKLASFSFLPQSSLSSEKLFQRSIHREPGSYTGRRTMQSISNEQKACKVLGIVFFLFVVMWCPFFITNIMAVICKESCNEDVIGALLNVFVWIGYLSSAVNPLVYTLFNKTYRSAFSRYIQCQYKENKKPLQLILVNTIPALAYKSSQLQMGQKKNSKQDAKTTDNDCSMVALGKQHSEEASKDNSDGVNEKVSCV

For experiment [2], the target named is T1, h5-HT2A. Nature of the experiment: IP1 formation (Gαq-mediated signaling), h5-HT2A. The format is cell-based. More on the design: expressed in transfected cells; host or cells: HEK 293 cells (membrane preparation).
In experiment [3] the target is T1, h5-HT2A. Put plainly: biochemical. It is filed as binding. On the set-up: expressed in transfected cells; host or cells: HEK 293 cells (membrane preparation).
Experiment [4] deals with T1, h5-HT2A. Put plainly: Arachidonic acid release (Gαi/o,12/13 marker), h5-HT2A. The format is cell-based. On the set-up: expressed in transfected cells; host or cells: HEK 293 cells (membrane preparation). As for the experimental part: as §1, §2, §3, §4, §5

Regarding `COc1ccc(OC)c(CC(C)N)c1.Cl` (stereo not shown) [2,5-DMA, 2,5-Dimethoxyamphetamine hydrochloride], the half-maximal effective concentration (EC50) (as a rule, the concentration that produces a half-maximal response) at h5-HT2A [1] stood at 1660 nM; on h5-HT2A [2], 1380 nM; on h5-HT2A [4] it was 160 nM. In addition, the Ki (as a rule, a measure of affinity in units of concentration, obtained from inhibition or displacement) at h5-HT2A [3] is 2500 nM.

The values above are taken from publication PMC12916490 (Molecular Psychiatry, 2025).
